Experimental data: PubChem BioAssay AID602139 (NMMLSC, 2011)
The list shows a part of the results, in another mix than the full data. Some of these compounds have results that are not shown, active ones among them. The source made the active and inactive calls. Cut-off read from the data, not from the text of the source: active = inhibition above about 32%; inactive = the rest.

System: Botulinum neurotoxin type A light chain protease (Clostridium botulinum A str. ATCC 3502)
Assay: inhibition of botulinum toxin A LC protease – biochemical, flow cytometry, cherry pick 1, confirmation (AID 602139)
Settings: multiplex microsphere protease assay, at 10 µM, active compounds read high

CN1[C@@H]2CC[C@H]1CC(OC(=O)C(O)(c1ccccc1)c1ccccc1)C2 (stereo partly specified)
inhibition: inactive: 0.2%
